# Measured values from article PMC12509120, “Complex Investigation of the Similarities and Differences between Ten Commercially Available Human Serum Albumin Preparations” (ACS Omega, 2025).
# Columns and labels:
# [1] = Ultrafiltration with site I marker warfarin; format: binding; conditions: warfarin 1.0 μM, HSA 3.5 or 6.0 μM, PBS pH 7.4, 30 kDa filter
# Procedure: (§1) In ultrafiltration experiments, we applied our previously reported models. , Briefly, Amicon Ultra centrifugal filters (30 kDa; Merck, Darmstadt, Germany) were washed once with water and once with PBS (each 500 μL). Then, samples (500 μL) were filtered for 10 min (centrifugation: 7500g, 25 °C, fixed angle rotor). Since HSA and albumin-bound molecules cannot pass through the filter with a 30 kDa cutoff value, HSA retains the bound ligand molecules, resulting in the decreased concentrations of site markers in the filtrate. , In the first experiment, the site I marker warfarin (1.0 μM) was filtered without and with HSA (3.5 or 6.0 μM). In the second experiment, the site II marker naproxen (1.0 μM) was filtered in the absence and presence of albumin (1.0 or 1.6 μM). After ultrafiltration, the concentrations of warfarin and naproxen were quantified in the filtrates with the previously described HPLC-FLD and HPLC-UV methods, respectively. ,
# [2] = Fluorescence quenching of HSA by site I marker furosemide; format: binding; conditions: HSA 2 μM
# Procedure: (§2) Fluorescence measurements were performed with a Hitachi F-4500 fluorescence spectrophotometer (Tokyo, Japan) at room temperature. Emission spectra of HSA solutions were recorded using 295 nm excitation wavelength. In quenching studies, increasing levels (final concentrations: 0, 1, 2, 3, 4, 5, and 6 μM) of site I (furosemide and iodipamide), site II (diazepam and ketoprofen), or heme site (biliverdin and methyl orange) markers were added to albumin (2 μM), and then their quenching effects were evaluated at 340 nm. After background correction, the inner-filter effects of ligands were also corrected based on the following equation: Icor=Iobs×10^(Aex+Aem)/2 where I cor and I obs are the corrected and observed fluorescence emission signals at 340 nm, respectively. Furthermore, A ex and A em are the absorbance values of the site markers applied at 295 and 340 nm, respectively. Stern–Volmer quenching constants (K SV) were determined with linear fitting, employing the following equation: I0/I=1+KSV×[Q] where I 0 marks the fluorescence emission signal of HSA without the ligand, I denotes the emission intensity of HSA in the presence of the ligand, and [Q] is the molar concentration of the quencher.
# [3] = Fluorescence quenching of HSA by site II marker diazepam; format: binding; conditions: HSA 2 μM, ligand 0–6 μM, relative to other albumins
# Procedure: as §2
# [4] = Fluorescence emission spectra of HSA solutions; format: physicochemical
# Procedure: as §2
# Fig. S3: Fluorescence emission spectra of HSA3 (4 μM) in PBS, and the emission signals measured in the
# filtrates and in the supernatant (λ ex = 295 nm), where samples were diluted according to the nominal 4 μM
# albumin concentration. Each process described below was also performed with PBS (without the protein), where
# In ultrafiltration experiments, a 500 μL volume of 20 μM HSA3 solutions (dissolved in PBS or in 25 v/v%
# isopropanol–PBS mixture) were filtered (10 min, 7500 g, room temperature) using Amicon Ultra centrifugal
# filters (30 kDa; Merck, Darmstadt, Germany). Thereafter, the filtrate was homogenized and diluted to fivefold
# volume with PBS (final isopropanol level ≈ 5 v/v%).
# In the other experiment, a 150 μL volume of 240 μM HSA3 solution (dissolved in PBS) was prepared, then 300
# μL of acetonitrile was added. After intensive vortexing, the precipitated protein was removed by centrifugation
# (10 min, 14,000 g, room temperature). Thereafter, the supernatant was diluted to 20-fold with PBS (final
# acetonitrile level ≈ 3.3 v/v%).
# (1 picture or pasted object on this page, not shown here)
# [5] = Fluorescence quenching of HSA by site II marker ketoprofen; format: binding; conditions: HSA 2 μM, ligand 0–6 μM, relative to other albumins
# Procedure: as §2
# [6] = Fluorescence quenching of HSA by site I marker iodipamide; format: binding; conditions: HSA 2 μM
# Procedure: as §2
# [7] = Total antioxidant capacity, luminol-based enhanced chemiluminescence microplate assay; format: biochemical; conditions: HSA solution 40 mg/mL in PBS, Trolox equivalent, compared between preparations
# Procedure: The total antioxidant capacity (TAC) was assessed using a luminol-based enhanced chemiluminescence (ECL) microplate assay, as it has been earlier described. Briefly, a 20 μL of blank, standard, or sample (40 mg/mL HSA, dissolved in PBS) was pipetted into the wells of white 96-well microplates (6005290; Per-Form Hungaria Ltd., Budapest, Hungary). Subsequently, 270 μL of the POD-ECL solution was added and the plate was shaken for 10 s. ECL reaction was initiated by the automated injection of 20 μL of H2O2 solution (1.5 mM). The luminescence of the reaction was monitored for 10 min (with 64 s measurement intervals), applying a Biotek Synergy HT plate reader (Agilent, Santa Clara, California, USA). TAC values were calculated based on the total light output (area under the curve, AUC) of the standards (Trolox, 0–100 μM). TAC of the samples was determined as Trolox equivalent (TE) in μM using a calibration curve.
# [8] = Fluorescence quenching of HSA by heme site marker methyl orange; format: binding; conditions: HSA 2 μM
# Procedure: as §2
# [9] = Ultrafiltration with site II marker naproxen; format: binding; conditions: naproxen 1.0 μM, HSA 1.0 or 1.6 μM, PBS, 30 kDa filter
# Procedure: as §1
# [10] = Fluorescence quenching of HSA by heme site marker biliverdin; format: binding; conditions: HSA 2 μM
# Procedure: as §2
# [11] = ligand 0–6 μM, relative to other albumins
substance,measurement,setting,value
"HSA3: Human serum albumin preparation, Merck (Sigma-Aldrich) 126658, lot 3892542, lyophilized powder",Filtered fraction of warfarin in the presence of HSA,[1],very similar decreases
same,"Stern–Volmer quenching constant K SV, furosemide–HSA complex","[2]; furosemide 0–6 μM, PBS pH 7.4, λex 295 nm, λem 340 nm, mean ± SD",0.23 ± 0.01 × 10^–5 L/mol
same,Quenching effect of furosemide on the emission signal of albumin,[2]; [11],lower quenching effects
same,Quenching effect of diazepam on the emission signal of albumin,[3],negligible decreases
same,Emission peak in the filtrate after ultrafiltration,"[4]; 30 kDa filter, in PBS, λex 295 nm",around 355 nm
same,Fluorescence emission wavelength maximum,"[4]; HSA 2 μM in PBS pH 7.4, λex 295 nm",~355 nm
same,Fluorescence emission signal,"[4]; HSA 2 μM in PBS pH 7.4, λex 295 nm, compared between preparations",considerably stronger fluorescence
same,Quenching effect of ketoprofen on the emission signal of albumin,[5],negligible decreases
same,"Stern–Volmer quenching constant K SV, iodipamide–HSA complex","[6]; iodipamide 0–6 μM, PBS pH 7.4, λex 295 nm, λem 340 nm, mean ± SD",0.55 ± 0.04 × 10^–5 L/mol
same,K SV of iodipamide–HSA complex,"[6]; iodipamide 0–6 μM, λem 340 nm",55000 L/mol
same,Quenching effect of iodipamide on the emission signal of albumin,[6]; [11],considerably weaker decreases
same,Total antioxidant capacity,[7],slightly lower antioxidant capacity
same,Quenching effect of methyl orange on the emission signal of albumin,[8]; [11],lowest impact
same,"Stern–Volmer quenching constant K SV, methyl orange–HSA complex","[8]; methyl orange 0–6 μM, PBS pH 7.4, λex 295 nm, λem 340 nm, mean ± SD",0.25 ± 0.02 × 10^–5 L/mol
same,Filtered concentration of naproxen in the presence of HSA,[9],comparable changes
same,"Stern–Volmer quenching constant K SV, biliverdin–HSA complex","[10]; biliverdin 0–6 μM, PBS pH 7.4, λex 295 nm, λem 340 nm, mean ± SD",0.97 ± 0.06 × 10^–5 L/mol
same,Quenching effect of biliverdin on the emission signal of albumin,[10]; [11],moderately reduced
